Values quoted from earlier work, collected in patent US10646532B2, “Method for preparing water extract of ashwagandha leaves which has enhanced anti-cancer activity utilizing cyclodextrin, and pharmaceutical composition containing ashwagandha leaves” (National Institute of Advanced Industrial Science and …, priority 2014, dated 2020).

Tested on: cancer cells / normal cells
Conditions: in vitro test, background art

Compound: CC1=C(CO)C(=O)O[C@@H](C(C)[C@H]2CCC3[C@@H]4C[C@H]5O[C@]56[C@@H](O)C=CC(=O)[C@]6(C)C4CC[C@@]32C)C1 (stereo partly shown) [withaferin A]
- cytotoxicity to cancer cells versus normal cells: has effects even on normal cells
